Columns and labels:
[1] = cited from earlier work
[2] = system: HepG2–C3A spheroids; details: 0.04 mg/mg dose, after 48 h
Procedure: Three hundred 21-day old spheroids (corresponding to ~25 million cells or 3.5 mg protein) were gently pipetted (using a cut-tip) into each 10 ml bioreactor before treatment to provide ample material for analysis. To initiate drug treatment, the bioreactor rotation was stopped for 30 s to allow the spheroids to settle to the bottom of the bioreactor. […] Each narrow range experiment was carried out in duplicate and ATP was measured in technical triplicates for each sample. […] Data were normalized to the vehicle-treated control. Error bars in the figures show standard deviation.
Cell viability was measured based on their ability to produce ATP [37]. […] The cells were then lysed with 100 μl of lysis buffer (CellTiter-Glo luminescent cell viability assay, Promega, Fitchburg, WI, Cat. no. G7571) and shaken in the dark for 20 min. Before the luminescence was measured in a FluoStar OPTIMA (BMG Labtech, Ortenberg, Germany) using the following parameters: one kinetic window, 10 measurement cycles with 0.3 s of measurement interval time, 2-s delay per measurement, additional 0.5-s delay per position change (repeated twice for each measured plate). Replicates were performed as described under the ‘Drug treatment’ Section. The data were normalized with reference to a standard curve for ATP and to the untreated control.

[3] = cited from earlier work; remark: listed apart in the source

SMILES	DILI rank (risk to induce drug-induced liver injury) [1]	ATP produced relative to vehicle control [2] [%]	Toxic dose, μg/ml in blood [3] [µg/mL]
O=C(O)Cc1ccccc1Nc1c(Cl)cccc1Cl [Diclofenac]	vMost DILI	–	–
[H]/N=C(/N)N/C(=N/[H])NCCc1ccccc1 [Phenformin]	–	81	0.6
